This is an account of results in PubChem BioAssay AID1875 (Broad Institute, 2009).

Some of the results follow. Some structures show a salt or complex split into parts, the way the source records it. Calls of active or inactive are those of the source.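 The calls were made as follows: active = lowest replicate activity score at least 50, where 100 means six control SD above control mean; inconclusive = lowest score under 50 but half or more replicates reach 50; inactive = the rest.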

The nature of the experiment: polyadenylation inhibitors in yeast reporter cells, primary screen, luminescence, S. cerevisiae (AID 1875).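 Also: yeast exposed to compound for 9 h at 30 °C; higher score means more reporter readthrough which indicates perturbed polyadenylation.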 Particulars: S. cerevisiae SKY197-pL101 polyadenylation reporter, beta-gal luminescence; at 12 µM; stronger effect = higher value; efflux-impaired pdr1/pdr3 knockout yeast; score 100 = 6 SD above DMSO.
Take `COc1ccccc1OP(C)(=O)Nc1ccc(Br)cc1` (centres undefined): the activity score is inactive: -13.4%. With `Cc1ccc(N/C(=N/P(=O)(N2CCOCC2)N2CCOCC2)N2CCOCC2)cc1` the figure was inactive: -7.05%; with `COc1ccccc1OP(=O)(Nc1ccc(C)cn1)Oc1ccccc1OC`, inactive: -23.3%. `COc1ccc(OP(C)(=O)Nc2ccccn2)cc1` (centres undefined): the activity score is inactive: -0.0842%. With `Cc1ccc(OP(=O)(Nc2nccs2)Oc2ccc(C)cc2)cc1`, the activity score is inactive: 6.54%. Take `CN1CCCC(OC(=O)C(c2ccccc2)c2ccccc2)C1` (centres undefined): the activity score was inactive: -24.9%. Regarding `CN(C)CCOC(=O)C(O)(c1ccccc1)C1CCCC1` (centres undefined), the activity score was inactive: -4.57%.

Consider `Clc1ccc(Cl)c(NC2=NCC(CBr)S2)c1` (centres undefined), for which the activity score was inactive: -1.87%. Take `Nc1cc(N)c2nonc2c1[N+](=O)[O-]`: the activity score was inactive: 11%.

With `Cc1c(NP(C)(=O)Oc2ccc(C(C)C)cc2)c(=O)n(-c2ccccc2)n1C` (centres undefined), the activity score is inactive: -0.351%. On to `O=[N+]([O-])c1cc([N+](=O)[O-])c(Nc2ccccn2)c([N+](=O)[O-])c1`, for which the activity score is inactive: -36.4%. Under `CC(C)CC(=O)NC(Sc1ccc(Cl)cc1)C(Cl)(Cl)Cl` (centres undefined) stands inactive: 2.27%.

Take `Oc1ccccc1CNc1ccccn1`: the activity score is inactive: 6.26%. With `O=C(NC(Sc1ccncn1)C(Cl)(Cl)Cl)c1ccccc1` (centres undefined) the figure was inactive: 8.84%; with `Cc1c2non([O-])c-2c(C)[n+](=O)[n+]1[O-]`, inactive: -17.6%.

As to `CP(=O)(Nc1ccccn1)Oc1ccccc1` (centres undefined), the activity score was inactive: 4.55%.

Turning to `COc1ccccc1OP(C)(=O)Nc1ccc(C)cc1C` (centres undefined), the activity score was inactive: -10.3%.

For `CCc1ccc(OP(C)(=O)O)cc1`, the activity score is inactive: 0.113%.

Regarding `O=P1(Nc2nc3ccc(Cl)cc3s2)COc2ccccc2O1` (centres undefined), the activity score was inactive: -5.63%. `CCOc1ccc(C2=NCC(CBr)S2)cc1` (centres undefined): the activity score is inactive: -20%.

`CP(=O)(Nc1ccccc1F)Oc1ccccc1` (centres undefined): the activity score was inactive: 21.4%. Take `CC(C)(C)C(=O)NC(Sc1ccccc1)C(Cl)(Cl)Cl` (centres undefined): the activity score was inactive: -15.1%. Take `CC(C)c1ccc(OP(C)(=O)Nc2ccc(SC(F)(F)F)cc2)cc1` (centres undefined): the activity score is inactive: 3.12%. With `CC(=O)c1ccc(N2CC2c2ccncc2)cc1` (centres undefined) the figure was inactive: -1.79%; with `O=C(OCCN1CCN(CCOCc2ccccc2)CC1)C(O)(c1ccccc1)c1ccccc1`, inactive: -4.33%; with `C[C@H]1OP(=O)(Oc2ccccc2)C[C@@H]2O[C@@H]21` (some centres undefined), inactive: 0.59%. `C[C@@H]1C=CCP(=O)(Oc2ccccc2)O1` (some centres undefined): the activity score is inactive: -1.18%. As to `CC(=O)Nc1ccc([As](=O)(O)O)c(O)c1`, the activity score is inactive: 21.3%. Turning to `COc1ccc2c(c1O)-c1c(O)c(OC)cc3c1[C@H](C2)[N+](C)(C)CC3.O=[N+]([O-])c1cc([N+](=O)[O-])c([O-])c([N+](=O)[O-])c1[O-]`, the activity score was inactive: -0.925%.
